Reference: patent US11123311B2, “Methods of treating mental disorders” (The Regents of the University of California, priority 2016, dated 2021)

Assay: experimental logP
Type: physicochemical

## CC(C)C(=O)N1CCC(NC(=O)Nc2ccc(C(F)(F)F)c(F)c2)CC1 [Compound 20]
  Exp/ logP: 4.40
